# Patent US5965126A, “use of mutant alkyltransferases for gene therapy to protect from toxicity of therapeutic alkylating agents” (priority 1996, dated 1999)
# Experiments:
# human AGT mutant P140A = biological target: T1, human AGT mutant P140A (Homo sapiens, UniProt P16455, P140A); experiment: Inactivation of cellular AGT in CHO cells expressing mutant P140A (CHO-P140A); type: cell-based
# T1 construct: expressed in transfected cells; host or cells: Chinese hamster ovary (CHO) cells
# T1 sequence (P16455 1-207 P140A): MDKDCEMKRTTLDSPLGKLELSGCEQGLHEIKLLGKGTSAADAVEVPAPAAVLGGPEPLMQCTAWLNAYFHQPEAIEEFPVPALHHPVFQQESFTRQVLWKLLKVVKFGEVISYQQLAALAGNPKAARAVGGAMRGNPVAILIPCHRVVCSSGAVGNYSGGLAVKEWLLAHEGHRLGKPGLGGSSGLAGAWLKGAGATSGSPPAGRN
# Protocol: (§1) FIG. 3a and FIG. 3b show a loss of AGT activity after exposure to different concentrations of BG (FIG. 3a) and 5-nitroso-BP (FIG. 3b). CHO cells expressing human AGT (.smallcircle.) and its mutants P140A (.circle-solid.) and G156A (.quadrature.) were exposed to BG or 5-nitroso-BP for 4 h. The cells were then harvested and the AGT activity determined.
# (§2) AGT activity assays--Extracts were prepared and AGT activity was determined as described by Dolan et al. (Dolan, et al., 1990, Proc. Natl. Acad. Sci. U.S.A. 87: 5368-5372) by incubation for 30 min at 37° C. with a [^3 H]methylated calf thymus DNA substrate prepared by reaction of DNA with N-[^3 H]methyl-N-nitrosourea (Amersham Inc., Arlington Hts., Ill.). The AGT activity of the cells was then expressed as fmol of O^6 -methylguanine removed per mg of protein present in the cell extracts. Protein was determined by the method of Bradford (Bradford, 1976, Anal. Biochem. 72: 248-254). Inactivation of cellular AGT was measured by adding different concentrations of BG or 5-nitroso-BP to cell cultures which had reached about 80% confluence. After 4 h exposure, the cells were harvested and washed with PBS. Cell pellets were stored at -80° C. until assayed. Extracts were then prepared and AGT activity determined. The results were expressed as the percentage of the AGT activity present in cultures to which no drug was added.
# human AGT mutant G156A = biological target: T2, human AGT mutant G156A (Homo sapiens, UniProt P16455, G156A); experiment: Inactivation of cellular AGT in CHO cells expressing mutant G156A (CHO-G156A); type: cell-based
# T2 construct: expressed in transfected cells; host or cells: Chinese hamster ovary (CHO) cells
# T2 sequence (P16455 1-207 G156A): T1 sequence (P16455 1-207 P140A) with A140P, G156A
# Protocol: as §1, §2
# ΔAGT (G156A) = biological target: T3, ΔAGT (G156A) (Homo sapiens, UniProt P16455, G156A); experiment: cell-based
# T3 sequence (P16455 1-207 G156A): T1 sequence (P16455 1-207 P140A) with A140P, G156A
# wtAGT [1] = biological target: T4, wtAGT (Homo sapiens, UniProt P16455); experiment: BG inactivation of AGT in wtMGMT transduced K562 cells
# T4 sequence (P16455 1-207): T1 sequence (P16455 1-207 P140A) with A140P
# AGT = biological target: T5, AGT (Homo sapiens, UniProt P16455); experiment: Inactivation of cellular AGT in CHO cells expressing human AGT (CHO-AGT); type: cell-based; set-up: expressed in transfected cells; host or cells: Chinese hamster ovary (CHO) cells
# T5 sequence (P16455 1-207): T1 sequence (P16455 1-207 P140A) with A140P
# Protocol: as §1, §2
# wtAGT [2] = biological target: T4, wtAGT; experiment: BG inhibition of AGT in wtMGMT transfected CHO cells; type: cell-based; set-up: expressed in transfected cells; host or cells: K562 (human chronic myelogenous leukemia), retrovirally transduced
compound,measurement,setting,value
"Nc1nc(OCc2ccccc2)c2[nH]cnc2n1 [BG, O^6 -benzylguanine]",IC50,human AGT mutant P140A,15 µM
same,IC50,human AGT mutant G156A,30 µM
same,IC50,ΔAGT (G156A),~18 µM
same,IC50,wtAGT [1],< 0.1 µM
same,IC50,AGT,0.5 µM
same,IC50,wtAGT [2],< 0.1 µM

# Changes are numbered by the printed parent chain.
